Earlier results as cited in PMC5045922, “In vivo pharmacological activity and biodistribution of S-nitrosophytochelatins after intravenous and intranasal administration in mice” (Nitric Oxide, 2016).

Legend:
[1] = parameters: method as in PMID 15901798, PMID 15295794, PMID 19646492; settings: intravenous bolus 0.001–0.3 μmol/kg, cited from earlier work
[2] = parameters: method as in PMID 15901798, PMID 15295794; settings: i.v. 1.5 μmol NO/kg; cited from earlier work

In the case of S-nitroso albumin [AlbSNO], the “decrease in blood pressure with co-administration of low molecular weight thiols” value ([1]; co-administration of low molecular weight thiols) is given as about 60%, the “decrease in blood pressure compared to baseline” value [1] is given as about 35% and the “tmax for plasma nitrites” value [2] is given as about 10 min.
